Assays:
tubulin = tubulin (Sus scrofa, UniProt P02550+P02554); assay: Evaluation of the inhibition of tubulin polymerization (turbidimetry); conditions: read-out: Inhibition of tubulin polymerization IC 50 (μm); tubulin 10 μm (1 mg/ml), 37° C., turbidity at 350 nm; concentration that inhibits the rate of polymerization by 50%
Description: Tubulin is purified from pig brain according to published methods (Shelanski et al., 1973, Proc. Natl. Acad. Sci. USA, 70, 765-768. Weingarten et al., 1975, Proc. Natl. Acad. Sci. USA, 72, 1858-1862). Briefly, the brains are ground and centrifuged in an extraction buffer. The tubulin contained in the supernatant of the extract undergoes two successive cycles of polymerization at 37° C. and depolymerization at 4° C., before being separated from the MAPs (Microtubule Associated Proteins) by chromatography on a phosphocellulose P11 column (Whatman). The tubulin thus isolated is more than 95% pure. It is stored in a buffer known as RB/2 30% glycerol, the composition of which is 50 mM MES-NaOH [2-(N-morpholino)ethanesulfonic acid], pH 6.8; 0.25 mM MgCl2; 0.5 mM EGTA; 30% glycerol (v/v), 0.2 mM GTP (guanosine-5′-triphosphate).
The polymerization of tubulin to microtubules is monitored by turbidimetry as follows: the tubulin is adjusted to a concentration of 10 μm (1 mg/ml) in RB/2 30% glycerol buffer to which 1 mM GTP and 6 mM MgCl2 are added. The polymerization is triggered by an increase in temperature from 6° C. to 37° C. in a cuvette with an optical path length of 1 cm, placed in a UVIKON 931 spectrophotometer (Kontron) equipped with a thermostatically maintained cuvette holder. The increase in the turbidity of the solution is monitored at 350 nm.
The products are dissolved at 10 mM in DMSO and added at variable concentrations (0.5 to 10 μm) to the tubulin solution before polymerization. The IC50 value is defined as the concentration of product that inhibits the rate of polymerization by 50%. A product whose IC50 value is less than or equal to 25 μm is considered as being very active.

The chains behind the UniProt entries cited, without tags or fusion partners.
UniProt P02550, whole entry: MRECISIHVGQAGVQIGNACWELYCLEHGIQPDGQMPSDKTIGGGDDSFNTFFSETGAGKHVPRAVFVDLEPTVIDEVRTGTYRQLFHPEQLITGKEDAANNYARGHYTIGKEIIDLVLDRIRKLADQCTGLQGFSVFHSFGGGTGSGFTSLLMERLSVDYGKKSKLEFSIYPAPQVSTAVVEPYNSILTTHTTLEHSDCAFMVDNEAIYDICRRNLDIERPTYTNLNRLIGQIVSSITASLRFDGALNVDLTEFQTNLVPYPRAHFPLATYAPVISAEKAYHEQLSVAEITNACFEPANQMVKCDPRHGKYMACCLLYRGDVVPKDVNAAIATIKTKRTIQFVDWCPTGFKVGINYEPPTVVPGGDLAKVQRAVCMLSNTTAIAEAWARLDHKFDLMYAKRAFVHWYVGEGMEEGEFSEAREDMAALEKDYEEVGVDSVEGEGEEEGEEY
UniProt P02554, whole entry: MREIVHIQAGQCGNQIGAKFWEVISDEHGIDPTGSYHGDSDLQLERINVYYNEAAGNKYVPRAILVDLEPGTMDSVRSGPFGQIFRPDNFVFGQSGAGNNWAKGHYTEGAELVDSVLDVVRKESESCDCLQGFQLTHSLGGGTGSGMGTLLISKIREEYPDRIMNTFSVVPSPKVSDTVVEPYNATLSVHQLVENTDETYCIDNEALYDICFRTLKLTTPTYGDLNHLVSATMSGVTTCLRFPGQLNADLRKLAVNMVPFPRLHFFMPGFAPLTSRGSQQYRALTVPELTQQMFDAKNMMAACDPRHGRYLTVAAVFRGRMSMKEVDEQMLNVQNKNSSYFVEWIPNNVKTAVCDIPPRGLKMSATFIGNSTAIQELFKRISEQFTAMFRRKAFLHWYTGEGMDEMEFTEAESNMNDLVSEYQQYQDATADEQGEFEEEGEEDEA

HCT116 cells = assay: Inhibition of proliferation of the human colon tumor line HCT116 ([14C]-thymidine incorporation); conditions: read-out: Inhibition of HCT116 proliferation IC 50 (μm), 48 hours at 37° C.
Description: The proliferation of HCT116 cells is evaluated by measuring the incorporation of [^14C]-thymidine in the following manner. The HCT 116 cells (obtained from the ATCC) are cultured in a DMEM medium (Gibco) containing 10% fetal calf serum and antibiotics (1% penicillin, 1% streptomycin). To perform the proliferation test, the cells are inoculated in cytostar 96-well microplates (Amersham), at a rate of 5000 cells per well. [^14C]-thymidine (0.1 μCi/well) and the products to be evaluated are then added. Variable concentrations of products up to 10 μm are used; the DMSO (solvent used to dissolve the products) should not exceed 0.5% in the medium. 48 hours after incubation at 37° C., the radioactivity incorporated into the cells is measured by counting the plate in a TRI-LUX counter (Wallac). The IC50 is defined as the concentration of product that reduces the radioactivity by 50% compared with an untreated control. A product whose IC50 is less than 3 μm is considered cytotoxic.

Structure (SMILES) | IC50 (tubulin) | IC50 (HCT116 cells)
Cc1cc(C(=O)N2CCN(c3cccc(OCc4ccccc4)c3)CC2)n(-c2ccccc2)n1 | 6000 nM | 560 nM
Cc1cccc(-n2nc(C)cc2C(=O)N2CCN(c3cccc4c3OCO4)CC2)c1 | 420 nM | 2.1 nM
COC(=O)C(CO)NC(=O)c1cccc(N2CCN(C(=O)c3cc(C)nn3-c3ccccc3)CC2)c1 (stereo not drawn) | 5500 nM | 
Cc1cc(C(=O)N2CCN(c3ccc(Cl)c(C)c3)CC2)n(-c2ccccc2)n1 | 1500 nM | 39 nM

Results, then the molecule that gave them:

IC50 (tubulin) | IC50 (HCT116 cells) | Structure (SMILES)
1200 nM |  | CCOC(=O)NCc1cc(C(=O)N2CCN(c3cc(OC)cc(OC)c3)CC2)n(-c2ccccc2)n1
900 nM |  | C=CCOC(=O)NCc1cc(C(=O)N2CCN(c3cc(OC)cc(OC)c3)CC2)n(-c2ccccc2)n1
